Measured values published in US10087422B2, “Organ chips and uses thereof” (PRESIDENT AND FELLOWS OF HARVARD COLLEGE, priority 2011, dated 2018).

Tested on: human lung-on-a-chip
Test: IL-2 toxicity (pulmonary vascular leakage) in human lung-on-a-chip
Format: cell-based
Text: Lung chips or lung-on-a-chip: The methods, multi-channeled architecture and ability of a Lung Chip (FIG. 1 and FIGS. 2A-2B) to mimic, at least in part, the normal physiology (e.g., normal breathing) of a lung are based on the first organ chip design and has been previously described in Huh D. et al. “Reconstituting organ-level lung function on a chip” Science (2010) 328: 1662, and in the International Application No. WO 2010/009307, the contents of which are incorporated herein by reference in their entireties.
In some embodiments, one side of the membrane 206 can be seeded with alveolar epithelial cells to mimic an epithelial layer while another side of the membrane 206 can be seeded with lung microvascular endothelial cells to mimic capillary vessels. Accordingly, lung chips, in some embodiments can be used to mimic an alveolar-capillary unit, which plays a vital role in the maintenance of normal physiological function of the lung as well as in the pathogenesis and progression of various pulmonary diseases.
The lung chips can be used to evaluate lung response to an active agent, e.g., but not limited to, immune response to microbial infection and/or inflammatory responses to nanoparticulate toxins. […]

## IL-2: chemotherapeutic cytokine with dose-limiting toxicity due to vascular leakage leading to pulmonary edema in humans
Physiological breathing motions (10% cyclic strain)
  blood clot formation: accompanied by blood clot formation as seen in humans
Physiological breathing motions (10% cyclic strain), fluorescent-insulin marker
  increase of pulmonary vascular leakage response relative to static conditions: more than 3 fold
Static conditions, fluorescent-insulin as marker of vascular permeability
  pulmonary vascular leakage into the air channel of the lung chip: small but significant increase
